Laboratory results from US7115632B1, “Sulfonyl aryl or heteroaryl hydroxamic acid compounds” (priority 1999, dated 2006).

Protein sequences, listed by entry. Tags and fused reporters are not part of them. Residues count along the entry.
UniProt P03956, 100-469 limits assumed: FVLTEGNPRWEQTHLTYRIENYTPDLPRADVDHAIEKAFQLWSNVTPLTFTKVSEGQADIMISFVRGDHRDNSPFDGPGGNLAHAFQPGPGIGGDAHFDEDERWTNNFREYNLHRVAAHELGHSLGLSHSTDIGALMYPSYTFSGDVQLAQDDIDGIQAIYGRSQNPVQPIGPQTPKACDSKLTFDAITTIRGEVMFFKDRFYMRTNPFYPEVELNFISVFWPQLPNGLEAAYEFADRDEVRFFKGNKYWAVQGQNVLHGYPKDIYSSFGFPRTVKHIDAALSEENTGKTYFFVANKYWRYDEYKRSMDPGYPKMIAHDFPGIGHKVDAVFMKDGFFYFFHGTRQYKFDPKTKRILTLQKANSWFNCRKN

Target: MMP-1 (Homo sapiens, UniProt P03956)
Test: In vitro metalloprotease inhibition, fluorogenic MCA peptide substrate
Format: biochemical
Conditions: read-out: MMP-1 IC50; Inhibition Table A

**Q.** Which IC50 does the source give for `O=C(O)c1ccccc1S(=O)(=O)N1CCC(Oc2ccc(C(F)(F)F)cc2)CC1` here?
**A.** > 10 µM
